# Experiments:
# Sequences of proteins named here, by UniProt entry; tags and fusion partners are left off.
# UniProt P49327, whole entry: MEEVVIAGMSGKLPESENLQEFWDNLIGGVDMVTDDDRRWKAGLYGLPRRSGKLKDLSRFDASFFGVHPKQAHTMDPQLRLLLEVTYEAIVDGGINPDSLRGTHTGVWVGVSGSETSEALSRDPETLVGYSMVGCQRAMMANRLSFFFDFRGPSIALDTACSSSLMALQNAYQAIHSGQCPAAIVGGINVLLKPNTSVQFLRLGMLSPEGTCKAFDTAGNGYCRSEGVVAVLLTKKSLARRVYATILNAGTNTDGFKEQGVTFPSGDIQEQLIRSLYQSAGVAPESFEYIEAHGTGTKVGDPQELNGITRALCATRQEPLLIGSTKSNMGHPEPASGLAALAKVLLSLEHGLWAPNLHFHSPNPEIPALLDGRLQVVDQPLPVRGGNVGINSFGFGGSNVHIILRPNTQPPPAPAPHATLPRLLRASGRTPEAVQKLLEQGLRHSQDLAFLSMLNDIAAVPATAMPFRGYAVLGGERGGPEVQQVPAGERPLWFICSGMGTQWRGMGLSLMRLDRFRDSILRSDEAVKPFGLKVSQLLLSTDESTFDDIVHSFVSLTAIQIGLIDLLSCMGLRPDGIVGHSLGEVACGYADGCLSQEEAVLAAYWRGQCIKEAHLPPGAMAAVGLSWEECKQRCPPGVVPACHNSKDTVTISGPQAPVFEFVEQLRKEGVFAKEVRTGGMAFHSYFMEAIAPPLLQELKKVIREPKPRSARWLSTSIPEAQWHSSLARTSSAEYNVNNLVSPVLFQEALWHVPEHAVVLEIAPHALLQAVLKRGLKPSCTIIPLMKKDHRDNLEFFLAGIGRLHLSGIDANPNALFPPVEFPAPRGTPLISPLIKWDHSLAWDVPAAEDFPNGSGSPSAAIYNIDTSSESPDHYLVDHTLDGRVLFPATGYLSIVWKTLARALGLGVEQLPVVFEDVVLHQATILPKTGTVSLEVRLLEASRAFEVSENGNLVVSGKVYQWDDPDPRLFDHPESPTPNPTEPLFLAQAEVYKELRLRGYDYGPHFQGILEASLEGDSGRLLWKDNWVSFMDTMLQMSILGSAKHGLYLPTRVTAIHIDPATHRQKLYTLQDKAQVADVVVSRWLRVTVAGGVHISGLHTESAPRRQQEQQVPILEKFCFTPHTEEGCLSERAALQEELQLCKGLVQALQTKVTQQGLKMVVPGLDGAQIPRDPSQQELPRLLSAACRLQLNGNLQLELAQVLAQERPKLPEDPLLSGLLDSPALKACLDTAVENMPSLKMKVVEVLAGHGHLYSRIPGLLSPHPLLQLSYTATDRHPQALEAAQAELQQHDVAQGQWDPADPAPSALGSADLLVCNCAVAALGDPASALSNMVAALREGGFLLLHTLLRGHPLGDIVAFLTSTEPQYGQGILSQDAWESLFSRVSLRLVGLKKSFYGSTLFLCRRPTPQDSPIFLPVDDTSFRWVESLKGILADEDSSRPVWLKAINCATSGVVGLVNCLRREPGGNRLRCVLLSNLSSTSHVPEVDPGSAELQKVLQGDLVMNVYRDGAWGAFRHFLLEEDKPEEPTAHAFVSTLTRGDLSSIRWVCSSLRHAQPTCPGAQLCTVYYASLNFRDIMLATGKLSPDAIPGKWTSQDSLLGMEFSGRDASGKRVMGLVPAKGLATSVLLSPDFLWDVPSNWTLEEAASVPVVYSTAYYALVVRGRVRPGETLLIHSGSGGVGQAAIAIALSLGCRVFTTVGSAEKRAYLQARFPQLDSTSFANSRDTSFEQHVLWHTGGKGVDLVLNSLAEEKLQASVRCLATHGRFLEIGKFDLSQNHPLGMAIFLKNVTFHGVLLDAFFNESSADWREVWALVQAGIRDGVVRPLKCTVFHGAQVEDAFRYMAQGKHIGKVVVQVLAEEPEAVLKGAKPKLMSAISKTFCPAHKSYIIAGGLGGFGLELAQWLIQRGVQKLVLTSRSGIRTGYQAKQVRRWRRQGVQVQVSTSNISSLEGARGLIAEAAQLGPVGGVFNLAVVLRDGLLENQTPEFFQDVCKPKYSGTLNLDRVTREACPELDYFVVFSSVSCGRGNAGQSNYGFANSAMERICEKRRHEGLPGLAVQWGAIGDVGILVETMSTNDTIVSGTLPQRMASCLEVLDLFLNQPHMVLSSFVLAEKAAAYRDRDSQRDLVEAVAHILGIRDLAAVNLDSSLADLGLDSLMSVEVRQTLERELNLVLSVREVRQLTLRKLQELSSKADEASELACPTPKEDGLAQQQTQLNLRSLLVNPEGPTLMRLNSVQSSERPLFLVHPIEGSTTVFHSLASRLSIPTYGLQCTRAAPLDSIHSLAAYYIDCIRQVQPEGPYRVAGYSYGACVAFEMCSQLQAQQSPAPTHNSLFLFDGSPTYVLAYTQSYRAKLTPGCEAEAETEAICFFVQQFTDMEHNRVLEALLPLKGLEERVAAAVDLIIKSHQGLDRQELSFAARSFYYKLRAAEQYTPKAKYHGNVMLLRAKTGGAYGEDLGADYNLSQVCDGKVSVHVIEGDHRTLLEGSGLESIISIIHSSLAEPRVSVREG
# [1] = molecular target: hFASN enzyme (full length) (Homo sapiens (Human), UniProt P49327); experiment: Fatty Acid Synthase (FASN) Inhibition Scintillation Proximity Assay; type: biochemical
# Protocol: In this assay, inhibition of FASN activity is measured using ^3H-acetyl-CoA and malonyl-CoA as substrates. ^3H-Acetyl CoA is converted to ^3H-palmitate through a series of reactions by the FASN protein, which contains 7 functional domains and carries out 7 enzymatic reactions to ultimately produce ^3H-palmitate. The assay principle is based upon the fact that ^3H-acetyl-CoA is hydrophilic and the end product, ^3H-palmitate is hydrophobic.
# 10 μL assay buffer (100 mM KH2PO4 pH 7.5, 1 mM DTT) (20 μL in blanks) was added to a 384-well white Opti Plate plate (Perkin Elmer). 0.9 μL test compound (at concentrations of 30 μM, 10 μM, 3 μM, 1 μM, 0.30 μM, 0.10 μM, 0.03 μM and 0.01 μM)/DMSO and 10 μL hFASN enzyme (full length, 300 ng, purified in house) or 10 μL assay buffer was added to the wells. […] The reaction was stopped by adding 20 μL Streptavidin coupled imaging beads (25 mg/ml). After incubation for 30 minutes at room temperature in the dark, the 384 well plate was centrifuged at 1500 rpm for 3 minutes and was measured after at least 24 hrs by the LEADseeker™, measuring emission using a 610±20 nm pass filter.
# (§1) Raw data generated by the instrument were normalized to % Controlmin values, which were calculated as: % Controlmin=100*(x−mLC)/(mHC−mLC)
# (§2) where mLC and mHC were the means of the low control wells and high control wells on the plate, after manual exclusion of outliers. A plot of Controlmin versus test compound concentration was fitted to a 4-parameter logistic curve using a non-linear least squares regression method.
# [2] = molecular target: FASN Keto-reductase Domain (hFASN enzyme, full length) (Homo sapiens (Human), UniProt P49327); experiment: Fatty Acid Synthase Keto-reductase Domain (FASN KR) Inhibition; type: biochemical; details: NADPH oxidation at 340 nm, ethyl acetoacetate substrate; read-out: FASN Keto-reductase Domain pIC50 (converted)
# Protocol: After 20 minutes incubation at room temperature the plate was measured again (T2).
# The decrease in absorbance was calculated as (Absorbance before incubation T1)−(Absorbance following incubation T2).
# as §1, §2
"Human FASN pIC50 ([1]; hFASN, 3H-acetyl-CoA and malonyl-CoA substrates, SPA, mean if tested more than once)",Compound,IC50 [1] [nM],IC50 [2] [nM]
,"Cn1ncc2cc(-c3ccc(C4=NC(C)(c5ccccc5)C(=O)N4C[C@@H]4CCN(C(=O)C5CC5)C4)cc3)ccc21 (mixture of isomers) [Compound 6, (4RS)-1-(((R)-1-(cyclopropanecarbonyl)pyrrolidin-3-yl)methyl)-4-methyl-2-(4-(1-methyl-1H-indazol-5-yl)phenyl)-4-phenyl-1H-imidazol-5(4H)-one]",162,417
,"COCC1(C)N=C(c2ccc(-c3ccc4c(cnn4C)c3)cc2)N(C[C@@H]2CCN(C(=O)C3CC3)C2)C1=O (mixture of isomers) [Compound 10, (4RS)-1-(((R)-1-(Cyclopropanecarbonyl)pyrrolidin-3-yl)methyl)-4-(methoxymethyl)-4-methyl-2-(4-(1-methyl-1H-indazol-5-yl)phenyl)-1H-imidazol-5(4H)-one]",490,1120
7.03,"Cn1ncc2cc(-c3ccc(C4=NC(C)(C)C(=O)N4C[C@@H]4CCN(C(=O)C5CC5)C4)c(F)c3)ccc21 [Compound 53, (R)-1-((1-(cyclopropanecarbonyl)pyrrolidin-3-yl)methyl)-2-(2-fluoro-4-(1-methyl-1H-indazol-5-yl)phenyl)-4,4-dimethyl-1H-imidazol-5(4H)-one]",,

# — patent US9718813B2, “Imidazolin-5-one derivative useful as FASN inhibitors for the treatment of cancer” (Janssen Pharmaceutica, NV, priority 2013, dated 2017)
